From US6087375A, “Methods of treating or preventing thromboses” (priority 1999, dated 2000)

Key:
[1] = target: T1, thrombin from human plasma (Homo sapiens, UniProt P00734); experiment: Km-based chromogenic thrombin inhibition assay (S-2238); assay type: biochemical; set-up: from tissue; host or cells: human plasma
Source text: Specifically, a Km-based chromogenic assay was first employed. […] Measurements at 405 nm are designed to detect the thrombin-induced liberation of p-nitroaniline from the S-2238 substrate. As such, an observed increase in absorbance at 405 nm directly correlates with an increase in hydrolysis of the substrate by thrombin.

[2] = target: T1, thrombin from human plasma; experiment: Vmax-based thrombin inhibition assay (200 μM S-2238); assay type: biochemical; set-up: from tissue; host or cells: human plasma
[3] = target: T1, thrombin from human plasma; experiment: Km-based inhibition assay for thrombin with conjugated HSA (10 μM S-2238); assay type: biochemical; set-up: from tissue; host or cells: human plasma
Protocol: Reaction conditions for conjugation of HSA with an NHS ester derivative of argatroban: 5 μM HSA was incubated with 235 μM of NHS ester of argatroban in 1.5 DMSO, 1.5% ethanol in PBS, pH 7.4 for 1.5 hours at room temperature. At this point, the unreacted ester in the sample was quenched by addition of 1.2 mM hydroxylamine and held at room temperature for 30 minutes. Conjugated HSA was desalted on a kwiksep column to remove any unbound forms of the argatroban derivative and concentrated using a centricon-10 column to approximately the initial reaction volume. Appropriate analogous procedures were followed for controls using 1) underivatized HSA protein and 2) HSA protein processed with prequenched argatroban NHS ester.
In a Km-based inhibition assay for thrombin from human plasma, 2.5 mU of thrombin in 10 μl of 0.1% polyethylene glycol 8000 (PEG) in PBS, pH 7.2, were added to 240 μl of PBS containing as final concentrations 10 μM S-2238 hydrolysis substrate, 1% DMSO, 0.1% PEG, and with or without 40 μg/ml HSA. HSA proteins tested included HSA conjugated with an NHS ester of argatroban, HSA processed with hydroxylamine prequenched NHS ester of argatroban and HSA processed through the same incubations and desaltings used to remove residual or free acid forms of the NHS ester of argatroban as in the above samples. The rate of substrate hydrolysis by thrombin was nearly linear for the first ten minutes in all cases, as measured by an increase in absorbance at 405 nm from the production of free p-nitroaniline. In duplicate wells 1) lacking HSA or 2) containing underivatized HSA or 3) containing HSA processed with quenched NHS ester of argatroban, the rate of hydrolysis of substrate was indistinguishable between samples and ranged from 0.94 to 1.08 mOD/minute. In duplicate wells containing HSA conjugated with the NHS ester of argatroban, the rate of hydrolysis of substrate ranged from 0.66 to 0.71 mOD/minute, thus, 32% inhibited compared to controls.
In a second independent experiment, HSA was again conjugated with argatroban-C12 NHS ester (compound YL-015-11). […]

thrombin = experiment: Sandwich ELISA for thrombin binding of conjugated proteins (anti-thrombin detection); details: for increase of OD490 versus prequenched ester or HSA alone: thrombin/anti-thrombin ELISA
Protocol: Materials and Methods: Human serum albumin (ISA, Sigma Cat. #A-8763) at a concentration of 333 μg/ml or rabbit serum albumin (RSA, Sigma Cat #A-9438) at a concentration of 300 μg/ml was reacted with 100 μM argatroban-C6 or -C12 NHS ester (compounds YL-015-35 or YL-015-11, respectively) in PBS, pH 7.4, for 1 hour at room temperature. The reaction was quenched by the addition of hydroxylamine, pH 7.8 to a final concentration of 50 mM and incubation at room temperature for 10 minutes. Prequenched negative control samples were of the same composition except that the argatroban NHS ester was reacted with hydroxylamine for 10 minutes prior to the addition of HSA or RSA. Finally, the HSA or RSA only sample had DMSO added to 1% to mimic the addition of argatroban NHS ester solutions and was incubated and quenched the same as the other reactions.
Rabbit anti-HSA (Boehringer/Mannheim, catalog no. 605001) or goat anti-RSA (Cappel, catalog no. 55629) antibodies were diluted 1:5000 in PBS, pH 7.4 and 100 μl/well was aliquotted into a NUNC Maxisorp F96 plates (catalog no. 439454). The plate was incubated overnight at 4° C., then blocked by the addition of 200 μl/well of 1% BSA/PBS and incubated at room temperature for 1 hour. The plate was then washed 5 times by submersion in PBS, pH 7.4.
The various HSA/argatroban derivative or RSA/argatroban derivative samples were serially diluted in 1% BSA/PBS (1:100 to 1:50,000) and 100 μl/well was added to duplicate wells of each sample dilution. Samples were incubated on the plates for 2 hours at room temperature and the plates were then washed as above.
Thrombin (Via Enzymes Systems, 11.4 mg/ml) was diluted to 9.4 μg/ml in PBS, pH 7.4, with 0.1% BSA/0.1% PEG 8000 (Sigma, catalog no. P-2139) and 100 μl/well was added. The plates were incubated at room temperature for 1 hour and washed as above.
Mouse anti-thrombin (American Diagnostics, catalog no. EST-7), an antibody thought to bind away from the active site of thrombin, was diluted to 1 μg/ml in PBS, pH 7.4, with 0.1% BSA/0.1% PEG 8000 and 100 μl/well was added to all wells. The plates were incubated at room temperature for 30 minutes and washed as above.
Biotinylated rabbit anti-mouse IgG (mouse gamma specific, Zymed, catalog no. 61-6540) was diluted 1:1000 in PBS, pH 7.4, with 0.1% BSA and 1% PEG 8000 and 100 μl/well was added to all wells. The plates were incubated at room temperature for 30 minutes and washed as above.
Next, 100 μl/well of ABC-HRP (Vector, catalog no. PK4000) was added, each component diluted 1:500 in PBS, pH 7.4, with 0.1% TWEEN 20 and incubated 30 minutes at room temperature prior to use. PEG 8000 was added to 0.1% just before addition of ABC-HRP to the plates. The plates were incubated with ABC-HRP for 30 minutes at room temperature and were then washed 10 times by submersion in PBS, pH 7.4. […]
(§1) Finally, 100 μl/well of o-phenylenediamine dihydrochloride (OPD, Sigma, catalog no. P-3804) was added at 0.5 mg/ml in citrate-phosphate buffer, pH 5.3 with 0.015% H2 02 and incubated at room temperature for 30 minutes. After incubation, 200 μl/well of 2 N sulfuric acid (VWR, catalog no. VW3S00-1) was added and absorbance was read at OD490 in a SpectraMax plate reader (Molecular Devices) after agitating the plate for 5 seconds. […]

[4] = test system: anti-KLH-argatroban antibody; experiment: Sandwich ELISA using polyclonal anti-KLH-argatroban antibodies; assay type: binding, rabbit
Protocol: Materials and Methods: Human serum albumin (HSA, Sigma catalog no. A-8763) or human glycophorin A (hGPA) protein at a concentration of 300 μg/ml was reacted with 100 μM argatroban-C6 NHS ester (compound YL-015-35) in PBS, pH 7.4, for 1 hour at room temperature. The reaction was quenched by adding hydroxylamine, pH 7.8 to a final concentration of 50 mM and incubating at room temperature for 10 minutes. Prequenched negative control samples were of the same composition except that the argatroban-C6NHS ester derivative was reacted with hydroxylamine for 10 minutes prior to the addition of HSA or hGPA protein. Finally, the HSA or hGPA only samples had DMSO added to 1% to mimic addition of argatroban derivative solutions and was incubated and quenched the same as other reactions. […]
as §1, with “15 -20” for “30”, “Then, 100” for “After incubation, 200”, “VW3500-1)” for “VW3S00-1)”, “absorbance” for “absorbance was”

CC1CNc2c(cccc2S(=O)(=O)N[C@@H](CCCNC(=N)N)C(=O)N2CC[C@@H](C)C[C@@H]2C(=O)O)C1 (stereo partly drawn) [argatroban, reference compound]
IC50 [1]: 0.02 µM | IC50 [2]: 0.25 µM

HSA conjugated with the NHS ester of argatroban: 5 μM HSA incubated with 235 μM of NHS ester of argatroban, quenched with hydroxylamine and desalted
inhibition of thrombin compared to controls ([3]; 40 μg/ml HSA, 10 μM S-2238, 2.5 mU thrombin): 32%

HSA reacted with argatroban-C6 NHS ester: human serum albumin reacted with 100 μM argatroban-C6 NHS ester (YL-015-35)
concentration at which a significant signal above background was detected (thrombin; HSA conjugate, FIG. 2): approximately 10 ng/ml | OD of C6 relative to C12 derivatized compound (thrombin; HSA conjugate, at saturation, FIG. 2): 6-7 fold | increase of OD490 versus prequenched ester or HSA alone (thrombin): significant increase of OD490 | increase of OD490 versus prequenched ester or protein alone ([4]; HSA and hGPA samples, FIGS. 5-8): significant increase of OD490 | concentration at which a significant signal above background was detected ([4]; HSA, FIG. 5): approximately 13 ng/ml

HSA reacted with argatroban-C12 NHS ester: human serum albumin reacted with argatroban-C12 NHS ester (YL-015-11)
concentration at which a significant signal above background was detected (thrombin; HSA conjugate, FIG. 2): approximately 10 ng/ml | increase of OD490 versus prequenched ester or HSA alone (thrombin): significant increase of OD490 | inhibition of thrombin activity relative to control samples ([3]; second independent experiment, HSA 40 mg/ml): 15-20% | inhibition of thrombin activity compared to control samples ([3]; second independent experiment, HSA 80 mg/ml): 35-42%
